Patent US10801054B2 (priority 2013, dated 2020)
Values joined by “and” are separate entries in the source; they are usually repeats but may differ in a detail not shown here. Equal entries are not always repeated.

Tested on: Phage litmus

## CC(C)O [IPA, isopropyl alcohol]
  Color change of Phage litmus bands upon exposure: immediately changed color
  Red-green-blue (RGB) color differences G3: 1.88 and 1.56 and 1.36
  Red-green-blue (RGB) color differences G4: 0.75 and 1.03 and 1.07
  Red-green-blue (RGB) color differences R1: 1.16 and 1.23 and 1.28
  Time in which all color matrices of the Phage litmus responded: 30 s
